As usually defined, the IC50 is the concentration that gives 50% inhibition. The low end stands for greater potency, the high end for weaker potency.

This experiment concerns the target T1, Dihydrofolate reductase (Homo sapiens, UniProt P00374).
T1 sequence (P00374 whole entry): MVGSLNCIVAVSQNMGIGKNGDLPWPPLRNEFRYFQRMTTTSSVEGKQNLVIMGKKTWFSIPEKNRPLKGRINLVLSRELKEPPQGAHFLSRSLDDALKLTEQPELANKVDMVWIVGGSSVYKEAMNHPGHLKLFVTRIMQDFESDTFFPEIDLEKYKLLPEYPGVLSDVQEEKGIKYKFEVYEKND
In words: Enzyme Inhibition Assay.

For the compound `COc1ccc(-c2cc(OC)cc(C(C)C#Cc3c(C)nc(N)nc3N)c2)cc1` (racemic), the 50% inhibitory concentration (IC50) was 180 nM.
As to `COc1cc(-c2ccc(C(C)(C)C)cc2)cc(C(C)C#Cc2c(C)nc(N)nc2N)c1` (racemic) [Biphenyl antifolate, 24], the IC50 is 210 nM.

(Values after BindingDB's records for doi:10.1111/j.1747-0285.2008.00745.x (University of Connecticut, 2009).)
